Literature values in patent US20260382616A1, “TREATMENT METHODS FOR SUBJECTS WITH NON-SMALL CELL LUNG CANCER HAVING AN ABERRATION IN EGFR” (published 2026).

Conditions: cited from earlier work; for Diarrhea: any grade, comparison with other ex20ins-directed therapies

Question: Which “Diarrhea, grade ≥3” value (160 mg) does the source give for C=CC(=O)Nc1cc(Nc2ncc(C(=O)OC(C)C)c(-c3cn(C)c4ccccc34)n2)c(OC)cc1N(C)CCN(C)C here?
Answer: The value was 16%.

Question: What about the Rash (160 mg) of the same compound?
Answer: Its Rash is 45%.

Question: And the “TRAEs leading to dose reduction” value (160 mg)?
Answer: The value was 21 % of patients.

Question: And the “TRAEs leading to treatment discontinuation” value (160 mg)?
Answer: Its value is 10 % of patients.

Question: What about the “Grade ≥3 diarrhea” value (human, in vivo) of the same compound?
Answer: The value was “over 20 % of patients”.

Question: What about the Adverse effects caused (patients, background) of the same compound?
Answer: The Adverse effects caused was “frequent rash and diarrhea”.

Question: With C=CC(=O)N1CCC(Oc2cc3c(Nc4ccc(Cl)c(Cl)c4F)ncnc3cc2OC)CC1 as the compound, how does the Diarrhea read?
Answer: The Diarrhea was 92 % of patients.

Question: And the “Grade ≥3 diarrhea” value (human, in vivo)?
Answer: Its value is “over 20 % of patients”.

Question: And the “Skin and gastrointestinal toxicities” value (human, in vivo)?
Answer: Its value is “high rates of skin and gastrointestinal toxicities”.

Question: What about the Dose reduction (starting dose 16 mg daily) of the same compound?
Answer: Its Dose reduction is 65 % of patients.

Question: For C=CC(=O)Nc1cc(Nc2nccc(Nc3cc(Cl)c(F)cc3C(C)(C)O)n2)c(OC)cc1N1CC[C@@H](N(C)C)C1, which Diarrhea is on record?
Answer: The Diarrhea was 54 % of patients.

Question: What does the source list for C=CC(=O)Nc1cc(Nc2nccc(-c3cn(C)c4ccccc34)n2)c(OC)cc1N(C)CCN(C)C?
Answer: Acneiform rash, any grade (160 mg daily): 38%; Fatigue, any grade (160 mg daily): 67%; Grade 3 gastrointestinal or dermatologic toxicities (160 mg daily): no cases
